Test results published in PubChem BioAssay (Tox21).
The entries are a selection whose mix differs from that of the whole data set. Inconclusive results are not listed. The source made the active and inactive calls. Unless noted, calls come from the whole dose curve; as a rule, active = well fitted curve in the direction sought with a large enough effect in the repeat runs; inconclusive = weak or mixed curves; inactive = no such curve, though single readings can be large; an effect the other way counts as inactive or inconclusive.

Sequences of proteins named here, by UniProt entry; tags and fusion partners are left off.
UniProt P06401, whole entry: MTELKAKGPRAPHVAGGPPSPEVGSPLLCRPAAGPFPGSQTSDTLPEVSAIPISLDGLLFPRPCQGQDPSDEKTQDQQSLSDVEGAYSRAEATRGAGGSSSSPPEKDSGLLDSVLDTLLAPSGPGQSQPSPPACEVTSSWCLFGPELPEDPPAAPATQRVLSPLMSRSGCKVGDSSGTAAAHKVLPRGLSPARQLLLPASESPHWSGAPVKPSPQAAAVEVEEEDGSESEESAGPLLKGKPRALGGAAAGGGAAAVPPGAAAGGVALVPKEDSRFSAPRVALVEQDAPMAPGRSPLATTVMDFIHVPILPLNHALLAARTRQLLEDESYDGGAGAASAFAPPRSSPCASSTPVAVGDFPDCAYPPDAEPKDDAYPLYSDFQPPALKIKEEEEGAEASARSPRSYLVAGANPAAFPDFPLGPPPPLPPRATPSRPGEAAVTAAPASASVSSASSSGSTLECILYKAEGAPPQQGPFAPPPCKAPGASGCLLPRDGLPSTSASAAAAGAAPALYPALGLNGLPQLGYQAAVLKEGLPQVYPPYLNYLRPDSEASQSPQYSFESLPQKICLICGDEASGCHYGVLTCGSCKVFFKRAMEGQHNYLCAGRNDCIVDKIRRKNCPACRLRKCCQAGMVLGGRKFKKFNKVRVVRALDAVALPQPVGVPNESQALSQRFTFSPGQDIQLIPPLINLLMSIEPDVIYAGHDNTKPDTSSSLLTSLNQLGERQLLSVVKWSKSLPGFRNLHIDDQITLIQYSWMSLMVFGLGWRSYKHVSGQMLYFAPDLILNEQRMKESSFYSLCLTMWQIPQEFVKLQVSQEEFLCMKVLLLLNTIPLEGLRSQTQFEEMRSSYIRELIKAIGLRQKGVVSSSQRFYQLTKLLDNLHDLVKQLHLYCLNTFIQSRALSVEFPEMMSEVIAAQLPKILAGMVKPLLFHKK

How the values were obtained:
[1] = qHTS assay to identify small molecule antagonists of the estrogen related receptor signaling pathway with the pleiotropic PPARgamma coactivator (PGC) from Tox21 10K library (AID 1224841; call rule not given here; note: actives are mostly falling curves and most rising ones were filed inactive; nearly all actives have a fitted effect of over 50% in size); details: PGC/ERR reporter cell line, ONE-Glo luciferase, 18 h
[2] = qHTS assay to identify small molecule antagonists of the estrogen related receptor (ERR) signaling pathway from Tox21 library (AID 1224848); details: ERR reporter cell line, luciferase antagonist mode, 18 h; note: nearly all actives have a fitted effect of over 50% in size
Summary of the method: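 Screening used an ERR reporter line supplied by NTP, exposed for 18 h at 37 C to library compounds delivered in DMSO. Signal was luciferase luminescence developed with ONE-Glo at room temperature for 30 min.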

[3] = qHTS RealTime-Glo MT Cell Viability Assay in HepG2 cells - 24 hour (AID 1224867); note: nearly all actives have a fitted effect of over 50% in size
Summary of the method: (§1)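 HepG2 cells (600/well) were dispensed with RealTime-Glo reagents, incubated 5 h at 37 °C, then treated with compounds in DMSO for up to 40 h. Nonlytic NanoLuc luminescence reflecting viable cells was read at each stated time point.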

[4] = qHTS RealTime-Glo MT Cell Viability Assay in HEK293 cells - 32 hour (AID 1224868); note: nearly all actives have a fitted effect of over 50% in size
Summary of the method: (§2)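 HEK293 cells seeded with NanoLuc/prosubstrate reagent, rested 5 h at 37 C, then dosed and kept at 37 C up to 40 h. Nonlytic real-time luminescence from viable cells read at 0, 8, 16, 24, 32 and 40 h.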

[5] = qHTS RealTime-Glo MT Cell Viability Assay in HepG2 cells - 40 hour (AID 1224870); details: RealTime-Glo luminescence; note: nearly all actives have a fitted effect of over 50% in size
Summary of the method: (§3)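 HepG2 cells mixed with RealTime-Glo MT reagents (NanoLuc plus cell-permeant prosubstrate) were seeded at 600 cells/well, incubated 5 h at 37 C/5% CO2, then pinned with compounds in DMSO; nonlytic luminescence tracked viability during 40 h treatment.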

[6] = A CellTox Green Cytotoxicity Assay to monitor cytotoxicity in HEK293 cells - 40 hour (AID 1224871); details: CellTox Green fluorescence; note: nearly all actives have a fitted effect of over 45% in size
Summary of the method: (§4)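 HEK293 cells, 600/well, were preincubated 5 hours and then exposed to compounds at 37 C for up to 40 hours. A cell-impermeant cyanine dye staining dead-cell DNA was read by fluorescence at 0, 8, 16, 24, 32 and 40 h time points.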

[7] = qHTS RealTime-Glo MT Cell Viability Assay in HEK293 cells - 16 hour (AID 1224872); note: nearly all actives have a fitted effect of over 50% in size
Summary of the method: as §2

[8] = qHTS RealTime-Glo MT Cell Viability Assay in HepG2 cells - 8 hour (AID 1224873); note: nearly all actives have a fitted effect of over 55% in size
Summary of the method: as §3

[9] = qHTS RealTime-Glo MT Cell Viability Assay in HEK293 cells - 40 hour (AID 1224874); details: RealTime-Glo luminescence; note: nearly all actives have a fitted effect of over 50% in size
Summary of the method: (§5)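 600 cells/well were plated with the nonlytic NanoLuc/prosubstrate reagent, pre-incubated 5 h, then given 23 nL of compound in DMSO. Incubation at 37 C for 40 h, with luminescence from viable-cell-reduced substrate read repeatedly from 0 h.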

[10] = A CellTox Green Cytotoxicity Assay to monitor cytotoxicity in HEK293 cells - 24 hour (AID 1224875); details: CellTox Green fluorescence; note: nearly all actives have a fitted effect of over 45% in size
Summary of the method: as §4

[11] = A CellTox Green Cytotoxicity Assay to monitor cytotoxicity in HepG2 cells - 16 hour (AID 1224876); details: CellTox Green fluorescence; note: nearly all actives have a fitted effect of over 45% in size
Summary of the method: (§6)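 HepG2 cells, 600/well, preincubated 5 h with CellTox Green dye, then exposed to Tox21 compounds in DMSO at 37 C for up to 40 h. Dead-cell DNA fluorescence read at the indicated time point.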

[12] = qHTS RealTime-Glo MT Cell Viability Assay in HepG2 cells - 32 hour (AID 1224877); note: nearly all actives have a fitted effect of over 55% in size
Summary of the method: as §1

[13] = A CellTox Green Cytotoxicity Assay to monitor cytotoxicity in HepG2 cells - 24 hour (AID 1224878); details: CellTox Green fluorescence; note: nearly all actives have a fitted effect of over 45% in size
Summary of the method: as §6

[14] = A CellTox Green Cytotoxicity Assay to monitor cytotoxicity in HepG2 cells - 40 hour (AID 1224879); note: nearly all actives have a fitted effect of over 40% in size
Summary of the method: as §6

[15] = A CellTox Green Cytotoxicity Assay to monitor cytotoxicity in HEK293 cells - 32 hour (AID 1224881); details: CellTox Green fluorescence; note: nearly all actives have a fitted effect of over 40% in size
Summary of the method: as §4

[16] = A CellTox Green Cytotoxicity Assay to monitor cytotoxicity in HepG2 cells - 32 hour (AID 1224883); details: CellTox Green fluorescence; note: nearly all actives have a fitted effect of over 50% in size
Summary of the method: as §6

[17] = A CellTox Green Cytotoxicity Assay to monitor cytotoxicity in HEK293 cells - 8 hour (AID 1224884); note: nearly all actives have a fitted effect of over 35% in size
Summary of the method: as §4

[18] = qHTS RealTime-Glo MT Cell Viability Assay in HepG2 cells - 16 hour (AID 1224885); note: nearly all actives have a fitted effect of over 50% in size
Summary of the method: as §1

[19] = qHTS RealTime-Glo MT Cell Viability Assay in HEK293 cells - 24 hour (AID 1224886); details: RealTime-Glo luminescence; note: nearly all actives have a fitted effect of over 50% in size
Summary of the method: as §2

[20] = qHTS RealTime-Glo MT Cell Viability Assay in HEK293 cells - 8 hour (AID 1224887); details: RealTime-Glo luminescence; note: nearly all actives have a fitted effect of over 50% in size
Summary of the method: as §5

[21] = A CellTox Green Cytotoxicity Assay to monitor cytotoxicity in HEK293 cells - 16 hour (AID 1224888); details: CellTox Green fluorescence; note: nearly all actives have a fitted effect of over 35% in size
Summary of the method: as §4

[22] = A CellTox Green Cytotoxicity Assay to monitor cytotoxicity in HepG2 cells - 8 hour (AID 1224890); details: CellTox Green fluorescence; note: nearly all actives have a fitted effect of over 45% in size
Summary of the method: as §6

[23] = qHTS assay to identify small molecule antagonists of the estrogen receptor alpha (ER-alpha) signaling pathway using the BG1 cell line in the presence of 0.1 nM 17-beta-estradiol - cell viability counter screen (AID 1259241); details: VM7Luc4E2 (BG1) viability, CellTiter-Fluor protease, 22 h; 0.1 nM estradiol agonist added; note: nearly all actives have a fitted effect of over 40% in size
Summary of the method: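 Estradiol-stimulated (0.1 nM) VM7Luc4E2 cells exposed to compounds 22 hr; viability measured by fluorescence of cleaved CellTiter-Fluor substrate after 30 min.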

[24] = qHTS assay to identify small molecule antagonists of the androgen receptor (AR) signaling pathway using the MDA cell line in the presence of 0.5 nM R1881 - cell viability counter screen (AID 1259242); note: nearly all actives have a fitted effect of over 45% in size
Summary of the method: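 MDA-kb2 cells (MMTV-luciferase, AR/GR responsive) were treated with compounds plus 0.5 nM R1881 (final) for 16 hr at 37C, 0% CO2. Viability was then read in the same wells as live-cell protease fluorescence (CellTiter-Fluor, 30 min).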

[25] = qHTS assay to identify small molecule antagonists of the sonic hedgehog signaling (Shh) pathway - cell viability counter screen (AID 1259367); details: NIH/3T3 Gli1-Luc viability, CellTiter-Fluor, 24 h; note: nearly all actives have a fitted effect of over 55% in size
Summary of the method: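 After a 4 hr settling period, 3T3 Gli1-Luc cells were treated with DMSO-dissolved chemicals and conditioned medium, kept 24 hr at 37C in 5% CO2, and assayed for viability by CellTiter-Fluor fluorescence following 1 hr reagent incubation.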

[26] = qHTS assay to identify small molecule agonists of the androgen receptor (AR) signaling pathway in the presence of an antagonist - cell viability counter screen (AID 1259379); details: MDA-kb2 viability, CellTiter-Fluor, 16 h; note: nearly all actives have a fitted effect of over 25% in size
Summary of the method: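 MDA-kb2 cells (MMTV-luciferase, AR/GR), 3,000/well, 5 h attachment, then 3.0 µM nilutamide (final) and compounds at 15 concentrations. Viability by CellTiter-Fluor fluorescence after 16 h at 37 °C, 0% CO2, in the reporter wells.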

[27] = qHTS assay to identify small molecule agonists of the estrogen receptor beta (ER-beta) signaling pathway - cell viability counter screen (AID 1259380); details: ER-beta-bla HEK293T viability, CellTiter-Glo luminescence, 16 h; note: nearly all actives have a fitted effect of over 30% in size
Summary of the method: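 ER-beta-UAS-bla HEK293T cells in medium with 2% charcoal-stripped FBS, pre-incubated 6 hr, then treated 16 hr at 37C. Cytotoxicity read in the same wells by CellTiter-Glo luminescence after 30 min at room temperature.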

[28] = qHTS assay to identify small molecule antagonists of the estrogen receptor beta (ER-beta) signaling pathway - cell viability counter screen (AID 1259382); details: ER-beta-UAS-bla HEK293T viability, CellTiter-Glo luminescence, 16 h; note: nearly all actives have a fitted effect of over 55% in size
Summary of the method: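 ER-beta-UAS-bla HEK293T cells in 2% charcoal-stripped FBS medium, treated with compound plus 1 nM 17-beta-estradiol for 16 h at 37C. Viability read by CellTiter-Glo luminescence after 30 min at room temperature in the same wells.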

[29] = qHTS assay to identify small molecule agonists of the estrogen receptor alpha (ER-alpha) signaling pathway in the presence of an antagonist - cell viability counter screen (AID 1259386);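 note: cells exposed to compounds for 22 h at 37 °C before the viability read; nearly all actives have a fitted effect of over 30% in size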
Summary of the method: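 Cell viability in VM7Luc4E2 cells (endogenous full-length ER-alpha) measured by CellTiter-Fluor fluorescence in the same wells as the luciferase screen. Cells pre-cultured 5 days in charcoal-stripped serum, then treated 22 h with compounds at 15 concentrations plus 10.0nM ICI-182,780.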

[30] = target: Progesterone receptor (Homo sapiens) (UniProt P06401); assay: qHTS assay to identify small molecule antagonists of the progesterone receptor (PR) signaling pathway (AID 1346795; active = well fitted inhibition curve with a large enough effect in the signal ratio in the repeat runs, not every such curve was filed as active; the % refers to the signal ratio); details: PR-UAS-bla HEK293T, beta-lactamase FRET ratio, 16 h
Summary of the method: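 In HEK293T cells bearing the PR-UAS-bla reporter, compound effects on promegestone-driven (1 nM) beta-lactamase expression are assessed after 16 hr using a fluorescent FRET substrate incubated 2 hr at room temperature.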

[31] = Human pregnane X receptor (PXR) small molecule agonists, qHTS cell viability counter screen (AID 1346977); details: PXR-Luc HepG2 viability, CellTiter-Fluor, 24 h; note: nearly all actives have a fitted effect of over 50% in size
Summary of the method: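 Tox21 qHTS format; PXR-Luc HepG2, 2,000/well, charcoal-stripped FBS 5%. Cpd exposure 24hr. Read: CellTiter-Fluor fluorescence, multiplexed with luciferase.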

[32] = Caspase-3/7 induction in CHO-K1 cells by small molecules, qHTS cell viability counter screen (AID 1346979); note: nearly all actives have a fitted effect of over 35% in size
Summary of the method: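 CellTiter-Fluor viability check, qHTS format: wild-type CHO-K1, 16hr compound treatment, 1hr reagent incubation, fluorescence read.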

[33] = Caspase-3/7 induction in HepG2 cells by small molecules, qHTS cell viability counter screen (AID 1346981); details: CellTiter-Fluor fluorescence, 17 h; note: nearly all actives have a fitted effect of over 30% in size
Summary of the method: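 Wild-type HepG2 cells, 2,000/well, settled 5 hr at 37 C, 5% CO2 before compound addition. Viability read by CellTiter-Fluor fluorescence, reagent added after 16 hr compound exposure, then 1 hr at 37C, in the same wells as the caspase read.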

Measured: Potency
Potency is the fitted concentration of half-maximal effect.

N#CSc1ccc([N+](=O)[O-])cc1[N+](=O)[O-]
active: [1] 48.6 µM | [2] 27.3 µM | [3] 15.5 µM | [4] 17.4 µM | [5] 15.5 µM | [6] 19.5 µM | [7] 13.8 µM | [8] 17.4 µM | [9] 15.5 µM | [10] 38.9 µM | [11] 19.5 µM | [12] 13.8 µM | [13] 15.5 µM | [14] 13.8 µM | [15] 24.5 µM | [16] 13.8 µM | [17] 43.6 µM | [18] 15.5 µM | [19] 15.5 µM | [20] 17.4 µM | [21] 38.9 µM | [22] 21.9 µM | [23] 54.5 µM | [24] 61.1 µM | [25] 24.3 µM | [26] 61.1 µM | [27] 21.7 µM | [28] 19.3 µM | [29] 61.1 µM | [30] 4.86 µM | [31] 19.3 µM | [32] 13.7 µM | [33] 61.1 µM
